# Test results taken from PubChem BioAssay AID624246 (National Center for Advancing Translational Sciences (NCATS), 2012).
# Protein sequences, listed by entry. Tags and fused reporters are not part of them.
# UniProt P11308, whole entry: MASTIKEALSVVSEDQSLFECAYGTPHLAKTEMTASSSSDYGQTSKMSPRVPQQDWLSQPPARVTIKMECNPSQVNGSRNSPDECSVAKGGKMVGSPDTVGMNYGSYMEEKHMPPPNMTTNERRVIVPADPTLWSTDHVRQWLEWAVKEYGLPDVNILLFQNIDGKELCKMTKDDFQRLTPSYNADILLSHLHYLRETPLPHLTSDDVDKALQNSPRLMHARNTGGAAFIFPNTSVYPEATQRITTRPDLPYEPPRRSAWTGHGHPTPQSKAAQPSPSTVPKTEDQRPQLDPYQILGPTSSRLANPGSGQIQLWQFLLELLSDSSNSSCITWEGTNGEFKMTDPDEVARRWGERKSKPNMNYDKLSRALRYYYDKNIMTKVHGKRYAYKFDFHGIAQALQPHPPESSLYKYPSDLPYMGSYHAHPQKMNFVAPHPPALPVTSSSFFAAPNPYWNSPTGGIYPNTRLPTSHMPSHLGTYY
# The entries are a selection whose mix differs from that of the whole data set. Activity calls are given as the source filed them. Calls follow the shape of the dose curve; as a rule, active = well fitted inhibition curve with a large enough effect in the polarisation, with a control signal flat; inconclusive = small, poorly fitted or top-dose-only effect, or effect the other way, or a change in a side signal; inactive = no such curve, though single readings can be large or run the other way; the % refers to the polarisation.
# Target: Transcriptional regulator ERG (Homo sapiens) (UniProt P11308)
# Experiment: qHTS for Small Molecule Inhibitors of the ERG Ets/DNA interaction; also: % of control where 0% means no effect
# Conditions: fluorescence polarization, His-ERG Ets domain / labelled DNA; at 76.9 µM (top of the series) unless noted
# Description: The Ets family of proteins is a family of ~30 conserved transcription factors defined by the presence of an ~85 amino acid domain referred to as the Ets domain, which mediates sequence-specific DNA binding to a core DNA element GGAA/T.The Ets family member ERG has been linked to several neoplasms. […] More extensive studies of the effects of over-expression of ERG in prostate cells have recently been carried out and have shown that over-expression of ERG results in increased invasion. […] We will carry out a high throughout screen to identify inhibitors of the interaction between ERG and DNA using a fluorescence polarization (FP) assay with a His-tagged ERG Ets domain and fluorescently-labeled DNA probes to develop small molecule inhibitors of this interaction as probes to test this hypothesis and lay the groundwork for the development of targeted therapies against ERG. NIH Molecular Libraries Probe Production Network [MLPCN] NIH Chemical Genomics Center [NCGC] Grant: NS066464 PI Name: John Bushweller, University of Virgina
# 1.5 ul of protein solution (1 uM ERG domain in 300mM KCl, 50mM Tris-HCl, 1mM EDTA, 1mM DTT, pH 7.5); 20 nl Control plate and compound library plate; 1.5 ul mixture of 5 nM Fluorescein-DNA and 100nM Texas-615-DNA solution in same buffer as above solution; measure fluorescence polarization sequentially for fluorescein (Excitation = 480 nm, Emission = 535s, 535p nm) and Texas red (Excitation = 555 nm, Emission = 632s, 632p nm).
row,Compound,"FP activity, negative = inhibition"
1,COc1cc(C(=O)NCC2(N3CCOCC3)CCCCC2)cc(OC)c1C,inactive: -3.45%
2,O=C(NCC1(N2CCOCC2)CCCCC1)c1cc(Br)ccc1Cl,inactive: 2.16%
3,COc1ccc(C(=O)NCC2(N3CCOCC3)CCCCC2)cc1OC,inactive: -3.02%
4,CCOC(=O)N1CCC(Nc2ccc(C)cc2)CC1,inactive: 2.33%
5,N/C(=N\O)c1c(N)no[n+]1[O-],inactive: -1.89%
6,CCc1cc(C(=O)NCC2(N3CCCCC3)CCCCC2)sc1C,inactive: -12.4%
7,O=C(OC1CN2CCC1CC2)C1c2ccccc2C=Cc2ccccc21 (stereo not drawn),inactive: -8.67%
8,O=C(O)c1cccc(Nc2c([N+](=O)[O-])cc([N+](=O)[O-])cc2[N+](=O)[O-])c1,inactive: -10%
9,O=C(NCC1(N2CCOCC2)CCCCC1)c1ccccc1[N+](=O)[O-],inactive: 5.88%
10,N#Cc1ccc(C(=O)NCC2(N3CCCCC3)CCCCC2)cc1,inactive: 15.2%
11,O=C(NCC1(N2CCOCC2)CCCCC1)c1ccc([N+](=O)[O-])cc1,inactive: -0.101%
12,CC(C)(C)OC(=O)N1CCC(N(C(=O)c2ccccc2)c2ccc(Cl)cc2)CC1,inactive: 5.22%
13,CCOC(=O)C(CC)C1=NC(C)(C)Cc2ccccc21.O=[N+]([O-])c1cc([N+](=O)[O-])c(O)c([N+](=O)[O-])c1 (stereo not drawn),inactive: -3.62%
14,CN(C)C1(CNC(=O)c2cccc(C#N)c2)CCCCC1,inactive: 9.06%
15,c1ccc(CN2CCC(Nc3ccccc3)CC2)cc1,inactive: 7.37%
16,Cc1cc(N(CCCl)CCCl)ccc1C=O,inactive: -2.58%
17,O=C(NCC1(N2CCOCC2)CCCCC1)c1ccccc1,inactive: -3.8%
18,CCCN1CCC(Nc2cc(OC)cc(OC)c2)CC1,inactive: -12.9%
19,CN(C)C1(CNC(=O)c2ccc(C(C)(C)C)cc2)CCCCC1,inactive: 2.36%
20,CC(=O)N(c1ccccc1)C1CCNCC1,inactive: -10.4%
21,COc1cc(OC)cc(C(=O)NCC2(N3CCCCC3)CCCCC2)c1,inactive: 16.6%
22,Cc1ccc(C(=O)NCC2(N3CCCCC3)CCCCC2)o1,inactive: -1.54%
23,Cc1ccc(NC2(C#N)CCN(Cc3ccccc3)CC2)cc1,inactive: 7.02%
24,Cc1ccccc1NC1(C#N)CCN(Cc2ccccc2)CC1,inactive: 5.13%
25,CCN1CCC(Nc2cccc(F)c2)CC1,inactive: -8.92%
26,Cc1ccccc1C(=O)NCC1(N(C)C)CCCCC1,inactive: -0.578%
27,O=C(NCC1(N2CCCCC2)CCCCC1)c1ccco1,inactive: 4.18%
28,CC(C)(C)c1ccc(C(=O)NCC2(N3CCOCC3)CCCCC2)cc1,inactive: -8.06%
